Earlier results as cited in patent publication US5135937A, “Cycloalkylene azoles and pharmaceutical preparations obtained therefrom” (Schering Aktiengesellschaft, priority 1989, dated 1992).
Where a name gives a salt, the structure may show the parent alone.

Tested on: aromatase
Conditions: Cancer Res., 48: 834-838, 1988; cited from earlier work

Structure (SMILES): N#Cc1ccc(C2CCCc3cncn32)cc1 (racemic) [D, 5-(p-cyanophenyl)-5,6,7,8tetrahydroimidazo[-1,5a]pyridine, hydrochloride, reference compound]
- aromatase inhibitor (in words): strongly effective aromatase inhibitor
